# From publication PMC12015242, “A universal cannabinoid CB1 and CB2 receptor TR-FRET kinetic ligand-binding assay” (Frontiers in Pharmacology, 2025)
# Amino acid sequences for entries named in this document (tags omitted).
# UniProt P34972, whole entry: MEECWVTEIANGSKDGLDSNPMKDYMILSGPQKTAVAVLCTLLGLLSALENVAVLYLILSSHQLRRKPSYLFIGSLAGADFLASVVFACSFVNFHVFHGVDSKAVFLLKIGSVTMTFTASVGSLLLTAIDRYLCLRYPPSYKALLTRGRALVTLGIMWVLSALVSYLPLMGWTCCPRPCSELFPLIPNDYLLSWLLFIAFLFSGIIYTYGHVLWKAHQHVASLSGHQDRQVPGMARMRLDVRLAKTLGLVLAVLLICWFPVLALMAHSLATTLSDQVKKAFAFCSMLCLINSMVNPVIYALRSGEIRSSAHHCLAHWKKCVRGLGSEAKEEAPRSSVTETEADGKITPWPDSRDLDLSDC
# Assays:
# human CB2R (SNAP-CB2) [1] = molecular target: T1, human CB2R (SNAP-CB2) (Homo sapiens, UniProt P34972); assay: biochemical; assay type: binding; set-up: truncated CB1R (CB1R91-472) and full-length CB2R (CB2R1–360); 5HT3A signal peptide (N, cleaved yes); expressed in transfected cells; membranes
# human CB2R (SNAP-CB2) [2] = molecular target: T1, human CB2R (SNAP-CB2); assay: biochemical
smiles,measurement,setting,value
CCCCCCC(C)(C)c1cc(OC)c([C@@H]2C=C(CO)[C@@H]3C[C@H]2C3(C)C)c(OC)c1 [HU-308],Ki,human CB2R (SNAP-CB2) [1],26.9 nM
same,Kd,"human CB2R (SNAP-CB2) [2]; pK d (kinetic), 37°C",27.5 nM
same,Kd,"human CB2R (SNAP-CB2) [2]; pKd (kinetic), 25°C",17.8 nM
